The numbers were not newly measured in article PMC7559231, “Drug-induced cholestasis assay in primary hepatocytes” (MethodsX, 2020), which cites them from elsewhere.

Where two headings read alike, the source gives them in different places.

Series [1] has as its system sandwich-cultured human hepatocytes. The settings on record: cited from earlier work.
Details of series [2]: method as in per compound in column References of Table 3 ([3], [24]-[44]). The following applies: mean total peak plasma concentration in humans; ref per compound in Table 3 ([3], [24]-[44]); cited from earlier work.
Setting [3] is: 300 µM test compound, 48 h exposure, SCHH, ref [6],[7].

As to `O=C(O)Cc1ccccc1Nc1c(Cl)cccc1Cl` [Diclofenac, diclofenac], the “DICI 24 h Mean” value is recorded as 1.34 in series [1] (300 µM test compound, 24 h exposure, SCHH, ref [6],[7]) and 1.16 in series [1]. For the same molecule, the “DICI 48 h Mean” value in series [1] (setting [3]) is on record as 1.04; in series [1] (500 µM test compound, 48 h exposure, SCHH, ref [6],[7]) it was 1.00; in series [1], 1.19.

On to `CN(CCOc1ccc(CC2SC(=O)NC2=O)cc1)c1ccccn1` (stereo not shown) [Rosiglitazone, rosiglitazone], for which, in series [2], the “Cmax,total” value was 1776 nM. Further, the “DICI 24 h Mean” value is listed as 1.08 in series [1] (50 µM test compound, 24 h exposure, SCHH, ref [6],[7]) and 1.27 in series [1] (100 µM test compound, 24 h exposure, SCHH, ref [6],[7]).

For the molecule `CCc1ccc(CCOc2ccc(CC3SC(=O)NC3=O)cc2)nc1` (stereo not shown) [Pioglitazone, pioglitazone], the “DICI 48 h Mean” value was 0.88 in series [1] (100 µM test compound, 48 h exposure, SCHH, ref [6],[7]) and 0.98 in series [1] (setting [3]).
